{
  "source": "patent US20060194819A1",
  "about": "“Activation specific inhibitors of nf-kb and method of treating inflammatory processes in cardio-vascular diseases” (PROCORDE GMBH, priority 2003, published 2006)",
  "key": {"[1]": {"test_system": "I KappaB alpha phosphorylation", "assay": "P-IkBalpha detection in Western blot of HeLa cell lysates after TNF alpha stimulation", "conditions": "HeLa cells", "method": "(§1) P-IkBα Detektion in Western-Blot Protocol: HeLa cells were maintained in Dulbecco's modified Eagle's medium (Invitrogen) supplemented with 10% fetal bovine serum, 2 mM L-glutamine, penicillin (50 units/ml) and streptomycin (50 μg/ml). 24 h before treatment with different compounds HeLa cells were plated at a density of 5×10^6 per well in 100-mm cell culture dishes to 90% confluences.\nThe cells were incubated with different drugs at the concentration indicated for 1 h, washed twice with PBS and stimulated with 20 ng/ml TNF alpha (Roche). After 7 min the cells were washed twice with ice cold PBS followed by scraping and transferring into a 1.5 ml micro centrifuge tube. After centrifugation by 2000 rpm for 2 min by 4° C. the PBS supernatant was removed and 200 μl lysis-buffer (10 mM Hepes, pH 7.9, 0.1% NP40, 10 mM, 300 mM Sucrose, 10 mM KCl, 15 mM MgCl2, 1 mM DTT, 0.5 mM PMSF and antipain, aprotinin, leupeptin each 0.75 μg/ml (Sigma) was added to the pellet. The resuspended pellet was incubated on ice for 5 min and centrifuged at 13000 g for 30 s. 30 μl of the supernatant, cytosolic extract, was diluted with Laemmli-buffer (2% SDS, 2% 2-Mercaptoethanol, 0.01% Bromophenol blue, 8% Glycerine), heated by 60° C. for 10 min and loaded to a 4-20% polyacrylamid gels (BioRad). After electrophoresis the proteins were transferred to a nitrocellulose membrane using the wet blotting technique. […]"}, "[2]": {"biological_target": "IKK-complex (Homo sapiens, UniProt O14920+O15111+Q9Y6K9)", "assay": "Cellular IKK kinase assay: HeLa cells treated with compound, TNF alpha stimulation, IKK-complex immunoprecipitated with anti-NEMO-antibody, I kappaB peptide phosphorylation by alpha screen", "conditions": "read-out: IC50 for inhibition of IKK-activity (I kappaB peptide phosphorylation), compound 1 h, TNF alpha 20 ng/ml", "method": "as §1, with “Kinase Assay” for “P-IkBα Detektion in Western-Blot”\nThe cells were incubated with different drugs at the concentration indicated for 1 h, washed twice with PBS and stimulated with 20 ng/ml TNF alpha (Roche). After 7 min the cells were washed twice with ice cold PBS followed by scraping and transferring into a 1.5 ml microcentrifuge tube. […] 6.6 μl of detection-buffer (20 mM Hepes pH 7.5, 100 mM NaCl, 1% Tween, 0.1 mM BSA, 50 μg/ml Protein A-Acceptor beads, 250 μg/ml Streptavidin-Donor beads (both Perkin-Elmer), 4 nM anti-phospho-IKB antibody (Santa Cruz Biotechnology) was dispensed to each well. After incubation for 1.5 h the plate was measured by alpha screen reader (Perkin Elmer). […]"}},
  "data": [
    {"smiles": "CCOC(=O)C1=C(C)N=c2sc(=Cc3ccc(-c4cccc(C(=O)O)c4)o3)c(=O)n2C1c1cc(OC)c(OC)cc1Br", "note": "(stereo not drawn)", "values": [
      {"measurement": "effect on IkappaB phosphorylation (Western blot), comparison of COM 73 and COM 54 family", "setting": "[1]; 10 and 100 μM", "result": "concentration-dependently inhibited"},
      {"measurement": "inhibition of phosphorylation of IkappaB (Western blot)", "setting": "[1]; increasing concentrations", "result": "dose-dependently inhibited"},
      {"measurement": "IC50", "setting": "[2]", "result": 8, "unit": "µM"}
    ]}
  ]
}
